Our source for the deltaT values is ChEMBL document CHEMBL2375249, “Synthesis and biological evaluation of novel pyrrolidine-2,5-dione derivatives as potential antidepressant agents. Part 1” (Eur J Med Chem, 2013).

The species named for test [1] is Mus musculus. The following applies: CD1, 0.1 mg/kg.
Test [2] is filed under the species Mus musculus. The following applies: CD1, 0.1 mg/kg. This is another data set of the same source.
For test [3], the species on record is Mus musculus. The following applies: CD1, 5 mg/kg.
The species named for test [4] is Mus musculus. The following applies: CD1, 5 mg/kg. This is another data set of the same source.
The species named for test [5] is Mus musculus. The following applies: CD1, 5 mg/kg. The source holds these as a separate data set.
The species named for test [6] is Mus musculus. The following applies: CD1, 5 mg/kg. The source holds these as a separate data set.
The species named for test [7] is Mus musculus. The following applies: CD1, 5 mg/kg. The source holds these as a separate data set.
The species entered for test [8] is Mus musculus. The following applies: CD1, 5 mg/kg. This is another data set of the same source.

Structures are written as SMILES.

On to `COc1ccccc1N1CCN(CCN(C(=O)C2CCCCC2)c2ccccn2)CC1`, for which the deltaT in test [1] and in test [2] was -0.2 °C throughout.
Take `CCCN(CCC)C1CCc2cccc(O)c2C1` (stereo not drawn): the deltaT in test [3] is -0.2 °C; in test [4] it was -0.1 °C; in test [5], -0.5 °C; in test [6], -0.9 °C; in test [7], -1.4 °C; in test [8], -1.3 °C.
